Measured values taken from ChEMBL document CHEMBL5316271, “Microtubule-Stabilizing 1,2,4-Triazolo[1,5-a]pyrimidines as Candidate Therapeutics for Neurodegenerative Disease: Matched Molecular Pair Analyses and Computational Studies Reveal New Structure-Activity Insights” (J Med Chem, 2023).

Sequences of proteins named here, by UniProt entry; tags and fusion partners are left off. A change or cut given only in a name is not applied to a line headed by its entry.
UniProt P68371: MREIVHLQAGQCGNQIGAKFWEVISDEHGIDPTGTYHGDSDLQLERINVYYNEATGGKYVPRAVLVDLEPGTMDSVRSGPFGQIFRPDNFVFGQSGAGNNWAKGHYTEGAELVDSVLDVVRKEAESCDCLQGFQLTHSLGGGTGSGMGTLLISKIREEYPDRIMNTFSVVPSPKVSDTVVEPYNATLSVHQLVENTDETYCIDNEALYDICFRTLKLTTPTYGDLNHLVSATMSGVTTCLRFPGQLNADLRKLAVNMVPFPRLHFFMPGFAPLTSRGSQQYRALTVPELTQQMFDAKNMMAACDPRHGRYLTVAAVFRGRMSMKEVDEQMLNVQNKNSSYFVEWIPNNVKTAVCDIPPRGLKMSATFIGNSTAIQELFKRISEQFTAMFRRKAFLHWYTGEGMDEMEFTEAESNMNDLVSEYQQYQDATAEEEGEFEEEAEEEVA
UniProt Q9H4B7: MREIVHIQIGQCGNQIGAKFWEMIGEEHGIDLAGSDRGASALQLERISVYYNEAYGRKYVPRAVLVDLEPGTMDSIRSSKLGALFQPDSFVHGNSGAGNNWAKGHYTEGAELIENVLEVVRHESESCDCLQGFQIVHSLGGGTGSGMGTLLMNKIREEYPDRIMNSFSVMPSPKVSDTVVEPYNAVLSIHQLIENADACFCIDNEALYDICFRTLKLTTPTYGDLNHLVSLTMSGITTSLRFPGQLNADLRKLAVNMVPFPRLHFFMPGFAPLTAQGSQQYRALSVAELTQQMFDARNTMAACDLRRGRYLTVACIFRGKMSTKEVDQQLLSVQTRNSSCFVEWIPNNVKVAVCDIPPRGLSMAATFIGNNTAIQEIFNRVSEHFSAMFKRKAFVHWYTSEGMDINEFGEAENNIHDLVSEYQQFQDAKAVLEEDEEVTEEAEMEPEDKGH
UniProt P0DPH7: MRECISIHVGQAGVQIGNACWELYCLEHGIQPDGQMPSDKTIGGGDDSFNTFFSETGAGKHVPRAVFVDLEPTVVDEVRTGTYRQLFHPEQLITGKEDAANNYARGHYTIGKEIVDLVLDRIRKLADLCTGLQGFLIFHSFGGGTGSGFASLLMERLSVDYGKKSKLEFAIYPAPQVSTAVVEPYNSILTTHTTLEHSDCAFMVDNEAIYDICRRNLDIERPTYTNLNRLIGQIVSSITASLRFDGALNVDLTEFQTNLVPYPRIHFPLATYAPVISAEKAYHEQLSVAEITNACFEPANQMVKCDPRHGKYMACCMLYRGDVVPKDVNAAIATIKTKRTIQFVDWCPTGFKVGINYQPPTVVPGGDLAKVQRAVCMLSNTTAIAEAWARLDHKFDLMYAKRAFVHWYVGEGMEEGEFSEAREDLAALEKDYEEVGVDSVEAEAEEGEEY
UniProt P68366: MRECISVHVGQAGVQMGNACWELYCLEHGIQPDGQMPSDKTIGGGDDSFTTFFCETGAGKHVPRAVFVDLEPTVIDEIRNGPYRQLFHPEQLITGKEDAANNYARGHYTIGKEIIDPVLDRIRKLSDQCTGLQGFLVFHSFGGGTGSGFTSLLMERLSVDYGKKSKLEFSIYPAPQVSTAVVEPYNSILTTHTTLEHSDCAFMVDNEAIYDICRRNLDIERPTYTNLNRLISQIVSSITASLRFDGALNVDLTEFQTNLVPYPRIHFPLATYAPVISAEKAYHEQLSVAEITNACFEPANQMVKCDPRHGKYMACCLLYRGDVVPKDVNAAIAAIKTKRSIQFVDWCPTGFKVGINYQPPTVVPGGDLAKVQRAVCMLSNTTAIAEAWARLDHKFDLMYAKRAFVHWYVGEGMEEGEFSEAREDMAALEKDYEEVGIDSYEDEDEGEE
UniProt Q13509: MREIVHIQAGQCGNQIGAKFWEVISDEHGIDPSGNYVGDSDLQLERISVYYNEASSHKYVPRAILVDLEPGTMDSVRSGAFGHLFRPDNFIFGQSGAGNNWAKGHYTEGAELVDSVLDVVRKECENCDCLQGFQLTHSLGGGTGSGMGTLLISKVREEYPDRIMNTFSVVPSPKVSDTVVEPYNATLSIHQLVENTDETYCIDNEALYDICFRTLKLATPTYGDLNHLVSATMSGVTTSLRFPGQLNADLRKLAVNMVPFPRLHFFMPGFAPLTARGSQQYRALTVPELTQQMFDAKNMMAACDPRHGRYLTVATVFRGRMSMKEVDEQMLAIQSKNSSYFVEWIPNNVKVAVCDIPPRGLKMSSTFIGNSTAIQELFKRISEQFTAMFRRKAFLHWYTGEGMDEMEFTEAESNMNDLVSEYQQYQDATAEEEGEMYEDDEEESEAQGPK
UniProt Q71U36: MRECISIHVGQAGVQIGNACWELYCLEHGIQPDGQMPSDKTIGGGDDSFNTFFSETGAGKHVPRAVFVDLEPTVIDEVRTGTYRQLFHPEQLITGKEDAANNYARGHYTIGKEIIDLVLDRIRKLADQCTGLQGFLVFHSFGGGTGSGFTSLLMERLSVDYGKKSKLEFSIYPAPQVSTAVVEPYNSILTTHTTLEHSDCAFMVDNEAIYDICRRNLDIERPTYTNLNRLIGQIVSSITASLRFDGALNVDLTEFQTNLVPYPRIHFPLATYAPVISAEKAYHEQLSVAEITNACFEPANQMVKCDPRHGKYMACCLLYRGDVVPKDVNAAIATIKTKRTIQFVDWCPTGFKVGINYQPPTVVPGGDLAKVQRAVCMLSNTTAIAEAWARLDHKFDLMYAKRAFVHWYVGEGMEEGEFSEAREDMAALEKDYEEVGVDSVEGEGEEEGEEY
UniProt P04350: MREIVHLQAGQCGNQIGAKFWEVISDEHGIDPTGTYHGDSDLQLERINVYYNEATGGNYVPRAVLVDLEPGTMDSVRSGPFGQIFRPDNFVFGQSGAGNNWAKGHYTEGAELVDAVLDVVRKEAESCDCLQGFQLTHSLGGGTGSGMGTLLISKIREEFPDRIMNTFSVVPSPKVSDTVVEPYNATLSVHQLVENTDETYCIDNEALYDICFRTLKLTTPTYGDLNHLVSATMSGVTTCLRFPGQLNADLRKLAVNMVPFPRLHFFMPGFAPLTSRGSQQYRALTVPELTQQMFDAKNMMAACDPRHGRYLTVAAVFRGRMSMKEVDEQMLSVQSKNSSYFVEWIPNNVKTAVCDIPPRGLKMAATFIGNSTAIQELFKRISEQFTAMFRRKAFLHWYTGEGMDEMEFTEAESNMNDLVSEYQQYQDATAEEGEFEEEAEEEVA
UniProt Q3ZCM7: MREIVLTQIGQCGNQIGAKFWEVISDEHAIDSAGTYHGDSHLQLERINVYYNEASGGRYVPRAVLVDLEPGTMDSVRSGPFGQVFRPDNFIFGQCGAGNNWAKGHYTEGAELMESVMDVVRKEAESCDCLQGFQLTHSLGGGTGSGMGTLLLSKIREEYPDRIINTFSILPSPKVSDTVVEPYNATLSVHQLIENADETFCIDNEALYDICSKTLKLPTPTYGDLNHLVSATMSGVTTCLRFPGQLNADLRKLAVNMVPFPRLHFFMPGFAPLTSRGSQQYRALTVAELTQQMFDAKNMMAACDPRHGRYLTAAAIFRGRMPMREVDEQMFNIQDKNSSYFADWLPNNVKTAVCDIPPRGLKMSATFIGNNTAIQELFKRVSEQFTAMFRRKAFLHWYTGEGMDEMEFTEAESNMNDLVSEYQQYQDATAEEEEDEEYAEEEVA
UniProt P07437: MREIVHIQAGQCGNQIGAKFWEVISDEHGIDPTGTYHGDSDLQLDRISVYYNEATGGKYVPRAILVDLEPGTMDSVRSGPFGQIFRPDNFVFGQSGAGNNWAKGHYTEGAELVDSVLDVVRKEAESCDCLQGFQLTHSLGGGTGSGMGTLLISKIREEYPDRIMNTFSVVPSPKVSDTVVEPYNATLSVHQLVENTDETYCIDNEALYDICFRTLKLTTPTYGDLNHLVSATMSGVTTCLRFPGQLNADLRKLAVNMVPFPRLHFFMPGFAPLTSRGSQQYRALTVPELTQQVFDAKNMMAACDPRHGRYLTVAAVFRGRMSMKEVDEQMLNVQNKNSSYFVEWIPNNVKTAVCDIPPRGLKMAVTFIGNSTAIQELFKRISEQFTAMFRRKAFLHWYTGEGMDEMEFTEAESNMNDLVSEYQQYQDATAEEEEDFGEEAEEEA
UniProt Q9BQE3: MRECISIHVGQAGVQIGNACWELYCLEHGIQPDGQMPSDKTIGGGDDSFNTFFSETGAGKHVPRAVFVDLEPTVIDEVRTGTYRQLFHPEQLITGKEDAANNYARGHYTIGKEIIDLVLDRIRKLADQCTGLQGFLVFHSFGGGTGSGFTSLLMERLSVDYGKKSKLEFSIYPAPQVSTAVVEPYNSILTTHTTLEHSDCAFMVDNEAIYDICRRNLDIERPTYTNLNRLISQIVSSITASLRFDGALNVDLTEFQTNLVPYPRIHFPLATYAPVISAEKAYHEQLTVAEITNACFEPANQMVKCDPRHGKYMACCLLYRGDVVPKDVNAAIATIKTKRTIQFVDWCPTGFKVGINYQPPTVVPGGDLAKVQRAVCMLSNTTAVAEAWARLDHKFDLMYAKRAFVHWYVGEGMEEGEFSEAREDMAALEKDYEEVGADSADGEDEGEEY
UniProt Q6PEY2: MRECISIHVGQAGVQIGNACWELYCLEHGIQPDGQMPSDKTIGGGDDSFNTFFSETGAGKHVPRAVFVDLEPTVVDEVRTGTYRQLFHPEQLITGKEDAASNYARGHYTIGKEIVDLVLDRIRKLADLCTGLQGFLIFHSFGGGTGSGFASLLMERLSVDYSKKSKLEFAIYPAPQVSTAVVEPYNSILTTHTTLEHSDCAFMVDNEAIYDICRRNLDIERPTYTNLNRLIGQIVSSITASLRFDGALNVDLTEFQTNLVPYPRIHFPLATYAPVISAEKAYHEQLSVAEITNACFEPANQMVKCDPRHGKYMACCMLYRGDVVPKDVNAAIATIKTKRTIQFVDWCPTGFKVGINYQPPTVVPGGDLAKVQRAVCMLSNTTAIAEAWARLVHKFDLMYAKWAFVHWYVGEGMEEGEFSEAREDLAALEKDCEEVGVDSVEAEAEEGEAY
UniProt Q13885: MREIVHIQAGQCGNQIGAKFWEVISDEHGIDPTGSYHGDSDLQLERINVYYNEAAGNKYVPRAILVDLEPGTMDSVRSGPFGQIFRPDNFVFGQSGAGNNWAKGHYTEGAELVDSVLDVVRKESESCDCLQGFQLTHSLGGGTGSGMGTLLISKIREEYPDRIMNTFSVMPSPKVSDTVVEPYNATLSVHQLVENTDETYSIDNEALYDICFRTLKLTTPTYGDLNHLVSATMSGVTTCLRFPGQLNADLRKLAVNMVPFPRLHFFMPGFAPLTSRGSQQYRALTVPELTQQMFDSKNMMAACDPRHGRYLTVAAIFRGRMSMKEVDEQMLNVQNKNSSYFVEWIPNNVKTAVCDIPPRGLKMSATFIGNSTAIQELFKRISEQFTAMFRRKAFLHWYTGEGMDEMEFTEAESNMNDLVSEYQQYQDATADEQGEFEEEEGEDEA
UniProt Q9BVA1: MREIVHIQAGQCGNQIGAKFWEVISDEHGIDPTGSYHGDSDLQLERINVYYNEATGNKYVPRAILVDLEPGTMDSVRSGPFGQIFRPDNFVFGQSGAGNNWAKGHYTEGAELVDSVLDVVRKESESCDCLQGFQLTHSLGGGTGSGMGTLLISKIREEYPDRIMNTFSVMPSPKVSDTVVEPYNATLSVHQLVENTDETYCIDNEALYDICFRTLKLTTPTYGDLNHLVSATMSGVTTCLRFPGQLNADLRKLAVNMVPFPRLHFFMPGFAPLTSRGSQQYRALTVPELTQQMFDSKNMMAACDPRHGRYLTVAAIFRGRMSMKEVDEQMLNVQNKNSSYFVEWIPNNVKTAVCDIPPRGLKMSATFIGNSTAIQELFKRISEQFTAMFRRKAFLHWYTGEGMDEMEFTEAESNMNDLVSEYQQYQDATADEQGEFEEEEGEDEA
UniProt Q9BUF5: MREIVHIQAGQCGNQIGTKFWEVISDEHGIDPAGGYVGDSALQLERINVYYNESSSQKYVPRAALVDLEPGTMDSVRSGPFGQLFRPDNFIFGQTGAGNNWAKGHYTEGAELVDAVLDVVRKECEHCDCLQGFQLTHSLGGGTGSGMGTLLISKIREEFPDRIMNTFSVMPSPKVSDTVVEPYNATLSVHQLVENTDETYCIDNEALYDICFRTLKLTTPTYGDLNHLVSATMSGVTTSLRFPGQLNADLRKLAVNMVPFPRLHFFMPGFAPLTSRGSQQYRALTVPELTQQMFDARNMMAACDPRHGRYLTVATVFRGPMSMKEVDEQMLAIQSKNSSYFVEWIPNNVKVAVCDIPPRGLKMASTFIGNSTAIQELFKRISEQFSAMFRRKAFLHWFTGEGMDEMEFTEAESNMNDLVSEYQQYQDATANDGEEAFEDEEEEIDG

Key:
Type in all cases: cell-based
Tubulin (Homo sapiens) [1] = molecular target: T1, Tubulin (Homo sapiens) (UniProt P68371+Q9H4B7+P0DPH7+P68366+Q13509+Q71U36+P04350+Q3ZCM7+P07437+P68363+Q9BQE3+Q6PEY2+Q13885+Q9BVA1+Q9BUF5); test: Induction of microtubule stabilization in human HEK293-A cells assessed as fold change in cellular acetylated alpha-tubulin level at 10 uM incubated for 4 hrs by ELISA relative to cevipabulin
Method in brief: (§1)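 QBI293 cells (2 × 10^5/well) treated 4 h with compound or DMSO vehicle; AcTub in whole-cell extracts measured by ELISA with BCA protein normalization. Fold-change in AcTub relative to DMSO then expressed against change produced by positive-control reference compound at 100 nM run alongside, to correct day-to-day responsiveness.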

Tubulin (Homo sapiens) [2] = molecular target: T1, Tubulin (Homo sapiens); test: Induction of microtubule stabilization in human HEK293-A cells assessed as fold change as increase in cellular acetylated alpha-tubulin level at 10 uM incubated for 4 hrs by ELISA relative to control
Method in brief: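 QBI293 cells (2 × 10^5/well) plated overnight, then fresh medium with compound (from 4–20 mM DMSO stocks) or vehicle (0.25–0.3% DMSO) for 4 h. Whole-cell extracts normalized by BCA protein; AcTub and total α-tubulin quantified by ELISA, as fold-change versus DMSO cells; one-way ANOVA.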

Tubulin (Homo sapiens) [3] = molecular target: T1, Tubulin (Homo sapiens); test: Induction of microtubule stabilization in human HEK293-A cells assessed as fold change in cellular acetylated alpha-tubulin level at 1 uM incubated for 4 hrs by ELISA relative to cevipabulin; method in brief: as §1

fold change (FC) (Tubulin (Homo sapiens) [1]) | fold change (FC) (Tubulin (Homo sapiens) [2]) | fold change (FC) (Tubulin (Homo sapiens) [3]) | Compound
0.43 | 3.36 | – | C[C@H](Nc1c(-c2c(F)cc(F)cc2F)c(Cl)nc2ncnn12)C(C)(C)C
– | – | 11.3 | CC(C)[C@@H](C)Nc1c(-c2c(F)cc(OCCCN(C)C)cc2F)c(Cl)nc2ncnn12
